## Apparent affinities of Ab-95 variants for a coronavirus HR2 peptide

Data: MIT Lincoln Laboratory AlphaSeq set, Engelhart et al. 2022, doi:10.1038/s41597-022-01779-4, as distributed in FLAb.

Target peptide (SARS-CoV-2 spike, HR2 region): PDVDLGDISGINAS

The variants keep the heavy chain, the linker and the frameworks of Ab-95 (scFv order VH, three GGGGS repeats, VL).
VH: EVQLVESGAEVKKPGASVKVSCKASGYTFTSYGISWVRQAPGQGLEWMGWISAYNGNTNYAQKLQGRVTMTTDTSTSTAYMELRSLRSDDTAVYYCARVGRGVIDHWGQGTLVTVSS
VL: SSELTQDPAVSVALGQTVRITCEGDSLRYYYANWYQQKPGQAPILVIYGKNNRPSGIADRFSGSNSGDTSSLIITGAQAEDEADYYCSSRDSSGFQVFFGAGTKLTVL

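Phage display of a naive human antibody library on the peptide gave the parent. AAYL52 was designed without a model: most single CDR substitutions and a random sample of double and triple ones. AlphaSeq pools MATa yeast showing the antibodies with MATalpha yeast showing the peptide. Binding brings cells together so that they mate, and sequencing counts the barcode pairs among the diploids. A regression on co-assayed BCL2-family reference pairs converts the normalised counts of each replicate to an apparent Kd. Each pool was mated in three replicate cultures.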

Substitutions are numbered in sequence along the VL above, starting at 1 (not Kabat). All variants listed here change A32 of the VL, counted from its first residue. Kd is apparent (estimated from mating counts) and averaged on the log scale over replicates with a signal. Smaller is tighter. "nd" marks a missing value. The strain was present, yet no cells mated with the target were sequenced in any replicate, which points to weak or no binding. For reference, the parent read 200 nM as the reference entry and 180 nM as a member of this library.

- R28W/A32P/G49K = 4.4 µM (1 of 3 replicates; controls 5 of 9)
- A32H/R53E/Q96A = nd (0 of 3 replicates; controls 5 of 9)
- A32L/N33P/N51A = 5.2 µM (1 of 3 replicates; controls 1 of 9)
- E23P/A32H/G94K = 130 µM (1 of 3 replicates; controls 1 of 9)
- E23S/A32Q/N51Y = nd (0 of 3 replicates; controls 3 of 9)
- A32G/R53S/S93Y = 52 µM (3 of 3 replicates; controls 3 of 9)
- Y31F/A32T/R90N = 780 nM (3 of 3 replicates; controls 4 of 9)
- A32T/K50A/S89W = 190 nM (3 of 3 replicates; controls 7 of 9)
- D25L/A32D/S89N = 330 µM (1 of 3 replicates; controls 1 of 9)
- A32V/S89M = 6.0 µM (3 of 3 replicates; controls 5 of 9)
- A32R/S55M/S88H = nd (0 of 3 replicates; controls 3 of 9)
- Y31R/A32D/F98G = 14 µM (2 of 3 replicates; controls 2 of 9)
- E23D/A32T/N52G = 64 nM (3 of 3 replicates; controls 1 of 9)
- A32E/S88W/V97H = 440 nM (3 of 3 replicates; controls 2 of 9)
- D25E/A32W/D91C = 9.1 µM (2 of 3 replicates; controls 0 of 9)
- A32I/S88E/S92T = 7.2 µM (3 of 3 replicates; controls 2 of 9)
- E23L/A32G/Q96Y = 7.2 µM (3 of 3 replicates; controls 2 of 9)
- A32N/R90K/F98G = 67 µM (3 of 3 replicates; controls 2 of 9)
- A32H/N33Y/N51E = 2.2 µM (2 of 3 replicates; controls 2 of 9)
- Y29D/A32K/V97N = 580 nM (3 of 3 replicates; controls 5 of 9)
- A32N/S89V = 4.5 µM (3 of 3 replicates; controls 2 of 9)
- S26R/A32W/G94H = 40 µM (3 of 3 replicates; controls 4 of 9)
- A32P/P54C/F98N = nd (0 of 3 replicates; controls 0 of 9)
- A32L/S89L = 12 µM (2 of 3 replicates; controls 3 of 9)
- A32M/R53F/G94P = 290 µM (1 of 3 replicates; controls 2 of 9)
- Y30M/A32D/F98Y = 46 µM (1 of 3 replicates; controls 4 of 9)
- A32Q/V97H/F98E = 3.0 µM (1 of 3 replicates; controls 0 of 9)
- L27R/A32M/S89V = 9.3 µM (2 of 3 replicates; controls 2 of 9)
- R28Y/A32S/G94W = 18 µM (1 of 3 replicates; controls 1 of 9)
- Y30G/A32R = 500 nM (3 of 3 replicates; controls 2 of 9)
- A32H/N51F/S93Q = nd (0 of 3 replicates; controls 0 of 9)
- A32L/G49F/S92A = 2.5 µM (1 of 3 replicates; controls 2 of 9)
- A32L/N33S/S89L = 3.4 µM (3 of 3 replicates; controls 1 of 9)
- S26W/Y29Q/A32H = 22 µM (1 of 3 replicates; controls 2 of 9)
- A32Y/G49T/S88P = nd (0 of 3 replicates; controls 4 of 9)
- G24D/A32L/G49I = 38 µM (3 of 3 replicates; controls 5 of 9)
- D25Y/A32T/N52Y = 360 nM (3 of 3 replicates; controls 6 of 9)
- A32N/G49Y/V97R = 47 µM (2 of 3 replicates; controls 6 of 9)
- S26V/A32C = 5.6 µM (3 of 3 replicates; controls 1 of 9)
- A32D/S55N/V97N = 52 µM (1 of 3 replicates; controls 2 of 9)
- A32Q/R90D/S92Q = nd (0 of 3 replicates; controls 1 of 9)
- Y31D/A32W/R90V = 8.2 µM (2 of 3 replicates; controls 3 of 9)
- A32S/S89E/R90N = nd (0 of 3 replicates; controls 0 of 9)
- A32T/N52Q = 35 nM (3 of 3 replicates; controls 1 of 9)
- A32Q/S92G/Q96N = nd (0 of 3 replicates; controls 2 of 9)
- Y30E/A32N/S93R = 3.2 µM (3 of 3 replicates; controls 3 of 9)
- A32V/R53T/S92L = 18 µM (1 of 3 replicates; controls 0 of 9)
- A32L/P54V/S93D = nd (0 of 3 replicates; controls 0 of 9)

Repeated from above, the 8 best binders with a signal in all replicates:

| changes | Kd (apparent) | seen in | signal with controls |
|---|---|---|---|
| A32T/N52Q | 35 nM | 3 of 3 | 1 of 9 |
| E23D/A32T/N52G | 64 nM | 3 of 3 | 1 of 9 |
| A32T/K50A/S89W | 190 nM | 3 of 3 | 7 of 9 |
| D25Y/A32T/N52Y | 360 nM | 3 of 3 | 6 of 9 |
| A32E/S88W/V97H | 440 nM | 3 of 3 | 2 of 9 |
| Y30G/A32R | 500 nM | 3 of 3 | 2 of 9 |
| Y29D/A32K/V97N | 580 nM | 3 of 3 | 5 of 9 |
| Y31F/A32T/R90N | 780 nM | 3 of 3 | 4 of 9 |

Empty control strains, which show no peptide, gave a signal in 28% of pairings with library AAYL52; the median was 8.2 µM and 95% of these signals were weaker than 800 nM. No background was subtracted. The control count says in how many pairings with the empty strains this scFv gave a signal.